Assay results taken from PubChem BioAssay AID2554 (Johns Hopkins Ion Channel Center, 2010).
The list shows a part of the results, in another mix than the full data. Some results for these compounds are left out of this collection, so the calls shown say nothing about other tests. Active and inactive are the calls of the source.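 Rule for the calls: active = primary screen hit whose fluorescence ratio, in both repeats, exceeds the weak agonist control mean by 3 SD; inactive = the rest.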

Tested on: TRPC4 (transient receptor potential cation channel C4 beta), mouse
Test: positive allosteric modulators of mouse TRPC4, confirmation, cell-based, second round, Fluo-4, HEK293 TRPC4beta/mu-opioid, 1 µM (AID 2554)
Settings: DAMGO EC20, Fluo-4 calcium flux, at 1 µM

SMILES	outcome
CN(C)c1ccc(C(=O)NCC2(N(C)C)CCCCC2)cc1	inactive
